The chains behind the UniProt entries cited, without tags or fusion partners. Where a name states a change or a piece, a line headed by the entry shows the natural chain unless it says otherwise. Residues count along the entry.
UniProt P00533, 669-1011 limits assumed: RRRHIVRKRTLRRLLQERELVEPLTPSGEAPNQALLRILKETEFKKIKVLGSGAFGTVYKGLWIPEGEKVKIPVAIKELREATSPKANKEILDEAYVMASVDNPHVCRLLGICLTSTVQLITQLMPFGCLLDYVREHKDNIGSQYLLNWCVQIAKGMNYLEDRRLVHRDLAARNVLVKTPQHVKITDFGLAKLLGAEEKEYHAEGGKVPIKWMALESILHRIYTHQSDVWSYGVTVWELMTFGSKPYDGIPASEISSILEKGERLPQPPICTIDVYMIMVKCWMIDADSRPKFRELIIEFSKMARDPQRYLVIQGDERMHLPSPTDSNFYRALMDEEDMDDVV
UniProt P00533, 669-1011 T790M/L858R limits assumed: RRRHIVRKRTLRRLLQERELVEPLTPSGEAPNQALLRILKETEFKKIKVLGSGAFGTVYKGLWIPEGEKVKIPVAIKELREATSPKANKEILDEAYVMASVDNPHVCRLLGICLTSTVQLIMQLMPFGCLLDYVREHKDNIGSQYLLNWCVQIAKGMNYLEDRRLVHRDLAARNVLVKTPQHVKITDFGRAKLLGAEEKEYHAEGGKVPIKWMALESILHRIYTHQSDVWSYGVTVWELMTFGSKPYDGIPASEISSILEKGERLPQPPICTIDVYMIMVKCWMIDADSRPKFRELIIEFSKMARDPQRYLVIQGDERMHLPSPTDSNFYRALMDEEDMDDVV
UniProt P00533, 696-1022 T790M/L858R limits assumed: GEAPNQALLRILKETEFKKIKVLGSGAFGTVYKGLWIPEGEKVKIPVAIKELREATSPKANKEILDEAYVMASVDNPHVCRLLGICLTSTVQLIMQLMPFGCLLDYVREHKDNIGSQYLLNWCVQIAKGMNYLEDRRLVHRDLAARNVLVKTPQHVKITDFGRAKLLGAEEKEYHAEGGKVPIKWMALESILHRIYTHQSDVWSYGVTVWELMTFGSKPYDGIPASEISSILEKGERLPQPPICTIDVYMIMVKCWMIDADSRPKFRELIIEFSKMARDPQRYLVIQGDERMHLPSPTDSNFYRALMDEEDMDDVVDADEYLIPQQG

In patent publication US20240408093A1, “HETEROBIFUNCTIONAL COMPOUNDS AND THEIR USE IN TREATING DISEASE” (HALDA THERAPEUTICS OPCO, INC., priority 2022, published 2024):

Experiments:
[1] = tested on: HEK293 cells (ATCC CRL-1573); experiment: Cellular growth inhibition assay, HEK293 cells (Example 16); conditions: read-out: HEK293 (GI50), 72 hours, CellTiter-Glo 2.0
Procedure: (§1) Exemplary compounds were tested for ability to inhibit the proliferation of HEK293 cells (ATCC CRL-1573) and HeLa cells (ATCC CCL-2).
(§2) HEK293 and HeLa cells were cultured in DMEM (Gibco 11995), supplemented with 10% Heat-inactivated FBS (Gibco A38400-01) and 1% Penicillin/Streptomycin (Gibco 15140-122) at 37° C. with 5% CO2 in a humidified tissue culture incubator. Cells were seeded at 500 cells/well in 384-well, Poly-D-lysine-treated blackplates (Perkin Elmer 6007710) in 25 μL media lacking selection for 18-24 hours. Plates were spun at 300 g for 30 seconds and stored in the incubator overnight. After 24 hours, a 25 μL aliquot of compound-containing medium was added in each well, at a final top concentration of 10 μM test compound, with 3-fold dilutions, using DMSO alone as a negative control. Plates were then spun at 300×g for 3 minutes again and cultured at 37° C. with 5% CO2. After 72 hours, cell viability was quantified with CellTiter-Glo 2.0 (Promega). After equilibrating cell plates at room temperature for 30 minutes, 25 μL CellTiter-Glo 2.0 reagent was dispensed into each well. Plates were mixed on a shaker for 2 minutes at 500 rpm, followed by a 10-minute incubation at room temperature. Luminescence readings were measured with an EnVision Plate Reader (Perkin Elmer). Data was normalized to DMSO treated cell wells. […]

HeLa cells (ATCC CCL-2) = experiment: Cellular growth inhibition assay, HeLa cells (Example 16); conditions: read-out: HeLa (GI50), 72 hours, CellTiter-Glo 2.0
Procedure: as §1, §2

[2] = target: EGFR WT (amino acids 669-1011) (Homo sapiens, UniProt P00533); experiment: KdELECT binding assay, EGFR WT; conditions: read-out: WT Kd
Procedure: (§3) Exemplary compounds were tested for ability to bind to EGFR WT (amino acids 669-1011, Accession Number NP_005219.2) or EGFR T790M, L858R (amino acids 669-1011 Accession Number NP_005219.2) expressed from bacteria or mammalian cells, respectively. Compounds were tested using the KdELECT assay at Eurofins Discovery.
(§4) Kinase-tagged T7 phage strains were prepared in an E. coli host derived from the BL21 strain. E. coli were grown to log-phase and infected with T7 phage and incubated with shaking at 32° C. until lysis. The lysates were centrifuged and filtered to remove cell debris. The remaining kinases were produced in HEK-293 cells and subsequently tagged with DNA for qPCR detection. Streptavidin-coated magnetic beads were treated with biotinylated small molecule ligands for 30 minutes at room temperature to generate affinity resins for kinase assays. The liganded beads were blocked with excess biotin and washed with blocking buffer (SeaBlock (Pierce), 1% BSA, 0.05% Tween 20, 1 mM DTT) to remove unbound ligand and to reduce non-specific binding. Binding reactions were assembled by combining kinases, liganded affinity beads, and test compounds in 1x binding buffer (20% SeaBlock, 0.17× PBS, 0.05% Tween 20, 6 mM DTT). Test compounds were prepared as 111× stocks in 100% DMSO. […] The kinase concentration in the eluates was measured by qPCR.

[3] = target: EGFR T790M, L858R (amino acids 669-1011) (Homo sapiens, UniProt P00533, L858R/T790M); experiment: KdELECT binding assay, EGFR T790M, L858R; conditions: read-out: T790M/L858R Kd
Procedure: as §3, §4

[4] = target: EGFR T790M/L858R kinase domain (Homo sapiens, UniProt P00533, L858R/T790M); experiment: EGFR cellular target engagement assay (HEK293 cells stable for EGFR T790M, L858R); conditions: read-out: TE50, 6 hours
Procedure: HEK293 cells were cultured in DMEM (Gibco 11995), supplemented with 10% Heat-inactivated FBS (Gibco A38400-01) and 1% Penicillin/Streptomycin (Gibco 15140-122) at 37° C. with 5% CO2 in a humidified tissue culture incubator. Cells were made stable for EGFR (amino acids 696-1022, T790M, L858R) by lentiviral transduction, followed by selection with 1 μg/ml Puromycin Dihydrochloride (Thermo A1113803). Cells were seeded at 30,000 cells/ml in 0.1 ml of complete media in Poly-D-lysine-treated 96-well plates and incubated overnight. Cells were treated with increasing concentrations of compound and let incubate at 37C and 5% CO2 for 6 hours, after which media was aspirated, washed with 1×PBS and cells were lysed in RIPA Lysis and Extraction Buffer (Thermo 89901) supplemented with 5 mM MgCl2, Protease and Phosphatase inhibitor cocktail (Thermo 1861281), and Universal Nuclease (Thermo 88700). Plates with RIPA were shaken at 4° C. at 600 rpm for 15 min. After shaking samples, they were collected and spun down at 21,000 g for 15 min at 4° C. Following centrifugation, […] of lysate was added to Laemmli Sample Buffer (Bio-Rad 1610747) plus 10% beta-mercaptoethanol, boiled for 15 minutes at 65° C. and loaded onto 4-20% Mini-PROTEAN TGX™ Precast Protein Gels (Bio-Rad). Protein was transferred to a nitrocellulose membrane (Thermo LC2000) using the iBlot 2 Dry Blotting System (Thermo). […]

CCNK = experiment: Payload release assay (DC50 readout), CCNK degradation in the presence of recombinant target protein; conditions: II-series and V-4 (CCNK readout inferred)
Procedure: Exemplary compounds were tested for ability to cause degradation of CCNK or GSPT1 in the presence of recombinant target protein.
HEK293 LgBiT/GSPT1 HiBiT CRISPR Knock-in cells (Promega) were cultured in DMEM (Gibco 11995), supplemented with 10% Heat-inactivated FBS (Gibco A38400-01) and 1% Penicillin/Streptomycin (Gibco 15140-122) and 200 Vg/ml Hygromycin B (Gibco 10-687-010) at 37° C. with 5% CO2 in a humidified tissue culture incubator. HEK293 LgBiT/CCNK HiBiT cells (in-house, described above) were cultured in DMEM (Gibco 11995), supplemented with 10% Heat-inactivated FBS (Gibco A38400-01) and 1% Penicillin/Streptomycin (Gibco 15140-122) 200 Vg/ml Hygromycin B (Gibco 10-687-010), and 1 Vg/ml Puromycin Dihydrochloride (Thermo A1113803) at 37° C. with 5% CO2 in a humidified tissue culture incubator. Cells were seeded (1000 cells/well for HEK293 LgBiT/GSPT1 HiBiT cells or 3000 cells/well for HEK293 LgBiT/CCNK HiBiT cells) 384-well, tissue culture-treated white plates (Perkin Elmer 6007680) in 10 μL media lacking selection for 18-24 hours. Plates were spun at 300 g for 30 seconds and stored in the incubator overnight. After 24 hours, a 5 μL aliquot of recombinant target protein (final concentration of either 5 μM KRAS amino acids 1-169, C51S, C80L, C118S, G12C or 3 μM EGFR amino acids 696-1022 or 3 μM EGFR amino acids 696-1022, T790M, L858R) was added to wells, followed immediately by a 5 μL aliquot of 4× compound-containing medium supplemented with Endurazine Substrate (Promega N2570) was added in each well, at a final top concentration of 10 μM test compound and 0.5× Endurazine, with 4-fold dilutions, using DMSO alone as a negative control. Plates were then spun at 300×g for 3 minutes again and cultured at 37° C. with 5% CO2. After 6 hours the plate was read on Envision MultiMode Plate Reader 2105 (Perkin Elmer) to measure luminescence signal. Data was normalized to DMSO treated cell wells. A four-parameter non-linear regression curve fit was applied to dose-response data in Prism to determine the half maximal growth inhibitory concentration (GI50) of each compound.

GI50 (HeLa cells (ATCC CCL-2)): < 500 nM
Kd [2]: 50 to 500 nM
Kd [3]: 50 to 500 nM
EC50 [4]: < 250 nM
DC50 (CCNK; read-out: DC50 at 0 μM EGFR T790M L858R, 0 μM recombinant EGFR T790M L858R): < 250 nM
DC50 (CCNK; read-out: DC50 at 0 μM EGFR WT, 0 μM recombinant EGFR WT): 250 to 5000 nM
DC50 (CCNK; read-out: DC50 at 3 μM EGFR T790M L858R, 3 μM recombinant EGFR T790M L858R): < 250 nM
DC50 (CCNK; read-out: DC50 at 3 μM EGFR WT, 3 μM recombinant EGFR WT): < 250 nM
SMILES: C=C(CN1CCN(c2nc(NCc3nc4cc(C)ccc4[nH]3)n3ncc(Br)c3n2)CC1)C(=O)N[C@@H]1CN(c2nc(Nc3cn(C)nc3OC)c3ncn(C)c3n2)C[C@H]1F
GI50 [1]: < 500 nM

Read-outs that look alike come from different tables or passages of the source.
